# Results published in PubChem BioAssay AID1531 (NMMLSC, 2009).
# Only a part is listed here, and it is no random draw. Calls of active or inactive are those of the source. Cut-off read from the data, not from the text of the source: active = binding response below about 67% or above about 130%; inconclusive = no clear call, values can overlap the other calls; inactive = in between.
# Target: Mitogen-activated protein kinase kinase kinase 2 (Homo sapiens) (UniProt Q9Y2U5)
# Assay: wildtype MEKK2 PB1-MEK5 interaction, increase or decrease – biochemical, multiplex bead flow cytometry, Alexa488-MEK5, primary screen (AID 1531)
# Details: Alexa488-MEK5 binding to MEKK2 WT, at 10 µM, actives lie on both sides
row,SMILES,binding response (% of control)
1,N#Cc1ccc(C(=O)NCC2(N3CCCCC3)CCCCC2)cc1,inactive: 109%
2,CC(C)(C)OC(=O)N1CCC(N(C(=O)c2ccccc2)c2ccc(Cl)cc2)CC1,inactive: 93%
3,CN(C)C1(CNC(=O)c2cccc(C#N)c2)CCCCC1,inactive: 101%
4,CCCN1CCC(Nc2cc(OC)cc(OC)c2)CC1,inactive: 112%
5,c1ccc(CN2CCC(Nc3ccccc3)CC2)cc1,inactive: 98%
6,COc1ccc(C(=O)NCC2(N3CCOCC3)CCCCC2)cc1OC,inactive: 80%
7,O=C(OC1CN2CCC1CC2)C1c2ccccc2C=Cc2ccccc21 (centres undefined),inactive: 112%
8,CCOC(=O)N1CCC(Nc2ccc(C)cc2)CC1,inactive: 108%
9,O=C(O)C1(Nc2ccccc2)CCN(Cc2ccccc2)CC1,inactive: 103%
10,CC(C)(C)OC(=O)N1CCC(Nc2ccccc2)CC1,inactive: 98%
11,CCCOc1ccc(C(=O)NCC2(N(C)C)CCCCC2)cc1,inactive: 109%
12,CN1CCC(Nc2ccc(F)c(Cl)c2)CC1,inactive: 105%
13,CCOc1ncccc1C(=O)NCC1(N2CCOCC2)CCCCC1,inactive: 91%
14,CN1CCC(Nc2ccc(Cl)cc2)CC1,inactive: 106%
15,CCCOc1ccc(C)cc1CN(CCCl)CCCl,inactive: 97%
16,COc1cc(OC)cc(C(=O)NCC2(N3CCOCC3)CCCCC2)c1,inactive: 96%
17,COc1cccc(C(=O)N(c2cc(C)cc(C)c2)C2CCN(C(=O)OC(C)(C)C)CC2)c1,inactive: 96%
18,CCC(CO)(C(=O)OC1CN2CCC1CC2)c1ccccc1 (centres undefined),inactive: 105%
19,Fc1ccccc1NC1CCN(Cc2ccccc2)CC1,inactive: 99%
20,COc1cc(OC)cc(C(=O)NCC2(N3CCCCC3)CCCCC2)c1,inactive: 104%
21,CN(C)c1ccc(C(=O)NCC2(N3CCCCC3)CCCCC2)cc1,inactive: 100%
22,CCN1CCC(Nc2cccc(F)c2)CC1,inactive: 97%
23,COc1ccc(NC2CCN(CCc3ccccc3)CC2)c(OC)c1,inactive: 118%
24,CCOC(=O)N1CCC(Nc2ccc(F)cc2)CC1,inactive: 104%
25,O=C(NCC1(N2CCCCC2)CCCCC1)c1ccc(F)cc1,inactive: 100%
26,CCOc1ccc(C)cc1CN(CCCl)CCCl,inactive: 98%
27,Cc1ccc(OCC(C)C)c(CN(CCCl)CCCl)c1,inactive: 106%

row,SMILES,binding response (% of control)
1,CCOC(=O)N1CCC(Nc2cccc(C)c2)CC1,inactive: 104%
2,COc1cc(C(=O)NCC2(N(C)C)CCCCC2)ccc1OC(F)F,inactive: 100%
3,CSc1ccccc1C(=O)NCC1(N2CCCCC2)CCCCC1,inactive: 103%
4,COc1ccc(C(=O)NCC2(N3CCCCC3)CCCCC2)c(OC)c1OC,inactive: 104%
5,CC(C)(C)OC(=O)N1CCC(N(C(=O)c2ccccc2)c2ccc(F)cc2)CC1,inactive: 100%
6,COc1ccc(C(=O)NCC2(N3CCCCC3)CCCCC2)cc1,inactive: 104%
7,O=C(NCC1(N2CCCCC2)CCCCC1)c1ccc(=O)[nH]c1,inactive: 105%
8,N#CC1(Nc2ccccc2)CCN(Cc2ccccc2)CC1,inactive: 107%
9,O=C(OC1CN2CCC1CC2)C1c2ccccc2Oc2ccccc21 (centres undefined),inactive: 117%
10,CCOC(=O)N1CCC(Nc2ccc(OC)cc2)CC1,inactive: 98%
11,Cc1cc(C)cc(N(C(=O)c2ccccc2)C2CCN(C(=O)OC(C)(C)C)CC2)c1,inactive: 107%
12,O=C(NCC1(N2CCOCC2)CCCCC1)c1cc2ccccc2o1,inactive: 104%
13,COc1cc(OC)c(C(=O)NCC2(N(C)C)CCCCC2)cc1OC,inactive: 102%
14,CC(C)c1ccc(NC2CCN(C(=O)OC(C)(C)C)CC2)cc1,inactive: 97%
15,CN(C)c1cccc(C(=O)NCC2(N3CCCCC3)CCCCC2)c1,inactive: 124%
16,COc1ccc(CN(CCCl)CCCl)cc1Cl,inactive: 89%
17,CCCOc1ccc(C(=O)NCC2(N(C)C)CCCCC2)cc1OC,inactive: 98%
18,CN1CCC(Nc2cccc(F)c2)CC1,inactive: 98%
19,N#CC1(Nc2ccccc2)CCN(CCc2ccccc2)CC1,inactive: 114%
20,CCN1CCC(Nc2ccc(Cl)cc2)CC1,inactive: 106%
21,O=C(NCC1(N2CCCCC2)CCCCC1)c1cccc([N+](=O)[O-])c1,inactive: 101%
22,O=C(NCC1(N2CCCCC2)CCCCC1)c1ccc(OC(F)F)cc1,inactive: 109%
23,COc1cc(C(=O)NCC2(N3CCCCC3)CCCCC2)ccc1OC(F)F,inactive: 104%
24,O=C(NCC1(N2CCOCC2)CCCCC1)c1cc(=O)[nH]c2ccccc12,inactive: 101%
25,CN1CCN(CCOC(=O)C(O)(c2ccccc2)c2ccccc2)CC1,inactive: 106%
26,COc1ccc(NC2CCN(C(=O)OC(C)(C)C)CC2)cc1,inactive: 88%
27,O=C(NCC1(N2CCCCC2)CCCCC1)c1cccc(C(F)(F)F)c1,inactive: 93%
